The chains behind the UniProt entries cited, without tags or fusion partners.
UniProt Q04609, whole entry: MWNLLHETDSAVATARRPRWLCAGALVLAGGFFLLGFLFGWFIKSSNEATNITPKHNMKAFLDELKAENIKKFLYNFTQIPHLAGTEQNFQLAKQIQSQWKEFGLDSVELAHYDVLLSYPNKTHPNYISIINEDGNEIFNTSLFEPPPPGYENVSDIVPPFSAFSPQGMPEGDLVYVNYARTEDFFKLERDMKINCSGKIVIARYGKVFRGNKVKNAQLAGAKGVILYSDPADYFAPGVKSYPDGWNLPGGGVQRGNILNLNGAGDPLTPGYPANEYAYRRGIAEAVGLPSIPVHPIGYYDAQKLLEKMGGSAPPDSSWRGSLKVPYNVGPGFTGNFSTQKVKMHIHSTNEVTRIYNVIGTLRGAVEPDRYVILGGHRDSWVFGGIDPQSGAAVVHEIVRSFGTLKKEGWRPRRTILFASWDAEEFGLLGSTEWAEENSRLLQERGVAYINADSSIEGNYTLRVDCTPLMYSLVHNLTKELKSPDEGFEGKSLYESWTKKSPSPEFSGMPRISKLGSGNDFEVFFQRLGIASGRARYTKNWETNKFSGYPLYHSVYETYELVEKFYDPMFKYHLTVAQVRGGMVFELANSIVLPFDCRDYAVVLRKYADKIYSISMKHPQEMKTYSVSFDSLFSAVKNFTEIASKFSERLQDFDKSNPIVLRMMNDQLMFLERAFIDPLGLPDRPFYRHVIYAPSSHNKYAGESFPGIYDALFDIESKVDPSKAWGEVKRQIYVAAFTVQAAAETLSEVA

According to paper PMC11913275, “Targeting prostate cancer by new bispecific monocyte engager directed to prostate-specific membrane antigen” (PLOS One, 2025):

Biological target: T1, Prostate-specific membrane antigen (Homo sapiens, UniProt Q04609)
T1 construct: also called PSMA; glutamate carboxypeptidase II; source: on PSMA-positive PC3-PIP cells
Experiment: flow cytometry on cells; PSMA-positive PC3-PIP cells (PC3 as negative control) mixed with 5-fold dilution series of the construct, 20 μL, 15 min at 4°C; 5D3-CP33 detected by anti-Strep tag antibody and Alexa Fluor 647 secondary, ch5D3 by anti-human Alexa Fluor 647 secondary; KD by non-linear regression
Conditions: one partner purified

Kd: 1.6 nM
B1: chimeric 5D3 (5D3 variable murine domains fused to constant domains of human IgG1) (antibody, V domains shown)
VH: EVQLQQSGPELVKPGASVKISCKTSGYAFNTSWMNWVKQRPGQGLEWIGRIYPGDGDTNYNGKFKGKATLTADKSSSTAHMHLSSLTSVDSAVYFCARGEWYLYYFDYWGQGTTLTVSS
VL: DIQMTQTTSSLSASLGDRVTISCSASQGINNFLTWYQQKPDGTLKLLIYYTSSLHSGVPSRFSGSGSGTDYSLTIRNLEPEDIATYYCQQYSNLPFTFGGGTKVEIK
